Among the targets are HLA-B*4001 (Homo sapiens, UniProt P01889, A65T/A93T/A95T/D138N/D98Y/E176V/E69K/N87E/Q56L/Q94N/R180L/S121R/S35A/S48T/T167S/V36M/W171L/Y33H/Y91S); HLA-B*4002 (Homo sapiens, UniProt P01889, A65T/A93T/A95T/D138N/D201E/D98Y/E176V/E204Q/E69K/K202T/N87E/Q56L/Q94N/R180L/S48T/Y33H/Y91S); HLA-B*1801 (Homo sapiens, UniProt P01889, A329T/A93T/A95T/C349S/D201E/D54G/D98Y/E176V/E187T/E204Q/E69T/K202T/Q94N/R155S/R180L/S121R/V306I/Y140S/Y195H/Y33H/Y91S); HLA-B*4501 (Homo sapiens, UniProt P01889, A329T/A65T/A93T/A95T/C349S/D138N/D201E/D98Y/E176V/E187L/E204Q/E69K/H137Y/K202T/L119W/N87E/Q56L/Q94N/R155S/R180D/S121R/S35A/S48T/V127L/V306I/V36M/W191S/Y140L/Y33H/Y91S).

Common to all, as to experiment: biochemical
Format in all cases: binding

Among the data in patent publication US20060079453A1, “Hla binding peptides and their uses” (priority 2002, published 2006) are IC50 values, retold here.

Structures are written as SMILES.

What is called IC50 is the concentration needed to halve the response being measured. Lower therefore signals inhibition by little substance.

Take `CC(C)C[C@H](NC(=O)[C@H](Cc1ccc(O)cc1)NC(=O)[C@H](CCC(=O)O)NC(=O)[C@H](CCC(=O)O)NC(=O)[C@H](C)N)C(=O)N[C@H](C(=O)N1CCC[C@H]1C(=O)N[C@@H](CCC(N)=O)C(=O)N[C@@H](CCC(N)=O)C(=O)NCC(=O)N[C@@H](Cc1ccccc1)C(=O)O)C(C)C`: the IC50 was 584 nM against HLA-B*4001 and 1830 nM on HLA-B*4002.

For `CC[C@H](C)[C@H](NC(=O)[C@H](Cc1ccccc1)NC(=O)[C@@H]1CCCN1C(=O)[C@H](CCCCN)NC(=O)[C@@H]1CCCN1C(=O)[C@@H]1CCCN1C(=O)[C@H](CCC(=O)O)NC(=O)[C@H](C)N)C(=O)N[C@H](C(=O)O)[C@@H](C)O`, the IC50 against HLA-B*4001 worked out at 7070 nM. That is a single-digit micromolar value. As to `CC(C)C[C@H](NC(=O)[C@@H]1CCCN1C(=O)[C@H](CO)NC(=O)[C@H](C)NC(=O)[C@H](CCCNC(=N)N)NC(=O)[C@H](CCC(N)=O)NC(=O)[C@H](CCC(=O)O)NC(=O)[C@H](C)N)C(=O)N[C@H](C(=O)O)[C@@H](C)O`, the IC50 turned out to be 874 nM against HLA-B*4001 and 183 nM against HLA-B*4002. Turning to `C[C@H](NC(=O)[C@H](CC(=O)O)NC(=O)[C@H](CCC(N)=O)NC(=O)[C@@H](NC(=O)[C@H](CCC(=O)O)NC(=O)[C@@H]1CCCN1C(=O)[C@H](CCC(=O)O)NC(=O)[C@@H](N)CS)[C@@H](C)O)C(=O)N[C@H](C(=O)O)[C@@H](C)O`, the figures for the IC50 on HLA-B*1801 and against HLA-B*4001 were 4010 nM and 3650 nM, respectively. Take `CC(C)[C@H](NC(=O)[C@@H]1CCCN1C(=O)[C@H](CC(N)=O)NC(=O)[C@H](CCC(N)=O)NC(=O)[C@@H](NC(=O)[C@H](CCC(=O)O)NC(=O)[C@@H](N)CS)[C@@H](C)O)C(=O)N[C@@H](CO)C(=O)N[C@@H](C)C(=O)O`: the IC50 at HLA-B*4001 was found to be 7020 nM. In other words, the single-digit micromolar range. Still for that read-out and setting: as for `CC(C)C[C@H](NC(=O)[C@@H]1CCCN1C(=O)[C@H](CO)NC(=O)[C@H](CCCNC(=N)N)NC(=O)[C@@H]1CCCN1C(=O)[C@H](C)NC(=O)[C@H](CCC(=O)O)NC(=O)[C@@H](N)CCC(=O)O)C(=O)O`, the figure is 3490 nM. On to `CSCC[C@H](NC(=O)[C@H](CCCNC(=N)N)NC(=O)[C@@H]1CCCN1C(=O)CNC(=O)[C@H](CCC(=O)O)NC(=O)[C@@H](N)CCC(=O)O)C(=O)N[C@@H](Cc1ccccc1)C(=O)N1CCC[C@H]1C(=O)N[C@@H](CC(=O)O)C(=O)N[C@@H](CC(C)C)C(=O)O`, for which the IC50 against HLA-B*1801 is 128 nM; against HLA-B*4001, 4440 nM; against HLA-B*4002, 486 nM. Regarding `CC[C@H](C)[C@H](NC(=O)[C@H](Cc1ccc(O)cc1)NC(=O)[C@H](CC(C)C)NC(=O)[C@H](Cc1ccc(O)cc1)NC(=O)CNC(=O)[C@@H](NC(=O)[C@@H](NC(=O)[C@H](CCC(=O)O)NC(=O)[C@@H](N)CCC(=O)O)[C@@H](C)CC)[C@@H](C)O)C(=O)O`, the IC50 against HLA-B*4001 was found to be 906 nM; at HLA-B*4002, 916 nM.

For `CC[C@H](C)[C@H](NC(=O)[C@H](CCCCN)NC(=O)[C@H](CCC(=O)O)NC(=O)[C@@H](N)CCC(=O)O)C(=O)N[C@@H](Cc1c[nH]c2ccccc12)C(=O)N[C@@H](CCC(=O)O)C(=O)N[C@@H](CCC(=O)O)C(=O)N[C@@H](CC(C)C)C(=O)O`, the IC50 against HLA-B*1801 turned out to be 753 nM; against HLA-B*4001 it was 9080 nM. At HLA-B*4001, `CC[C@H](C)[C@H](NC(=O)[C@H](CCCCN)NC(=O)[C@H](CCC(=O)O)NC(=O)[C@@H](N)CCC(=O)O)C(=O)N[C@@H](Cc1c[nH]c2ccccc12)C(=O)N[C@@H](CCC(=O)O)C(=O)N[C@@H](CCC(=O)O)C(=O)N[C@@H](CC(C)C)C(=O)N[C@@H](CO)C(=O)N[C@H](C(=O)O)C(C)C` registered an IC50 of 8950 nM. This counts as single-digit micromolar. In turn, `CC(C)C[C@H](NC(=O)[C@H](Cc1ccc(O)cc1)NC(=O)[C@H](CCC(=O)O)NC(=O)[C@@H](N)CCC(=O)O)C(=O)N[C@H](C(=O)N1CCC[C@H]1C(=O)N[C@@H](CCC(N)=O)C(=O)N[C@@H](CCC(N)=O)C(=O)NCC(=O)N[C@@H](Cc1ccccc1)C(=O)N[C@@H](Cc1ccccc1)C(=O)O)C(C)C` yielded an IC50 against HLA-B*4001 of 4290 nM. Same read-out and setting: to `CC[C@H](C)[C@H](NC(=O)[C@H](CO)NC(=O)[C@H](CC(=O)O)NC(=O)[C@H](CCC(=O)O)NC(=O)[C@H](CCCNC(=N)N)NC(=O)CNC(=O)[C@H](CCC(=O)O)NC(=O)[C@@H](N)Cc1ccccc1)C(=O)O` belongs 718 nM; to `CC[C@H](C)[C@H](N)C(=O)N[C@@H](CCC(=O)O)C(=O)N[C@@H](CC(C)C)C(=O)N[C@@H](CCSC)C(=O)N[C@@H](CCC(=O)O)C(=O)N[C@H](C(=O)N[C@@H](CC(=O)O)C(=O)N1CCC[C@H]1C(=O)N[C@H](C(=O)NCC(=O)O)[C@@H](C)CC)C(C)C`, 6590 nM. Regarding `CSCC[C@H](N)C(=O)N[C@@H](CCC(=O)O)C(=O)N[C@@H](CC(C)C)C(=O)N[C@@H](C)C(=O)N[C@@H](C)C(=O)N[C@@H](CC(C)C)C(=O)N[C@@H](CS)C(=O)N[C@@H](CCCNC(=N)N)C(=O)N[C@@H](Cc1c[nH]c2ccccc12)C(=O)NCC(=O)O`, the values for the IC50 at HLA-B*1801, at HLA-B*4001 and against HLA-B*4002 were 102 nM, 8680 nM and 1840 nM, respectively. For `CSCC[C@H](N)C(=O)N[C@@H](CCC(=O)O)C(=O)N[C@@H](CO)C(=O)N1CCC[C@H]1C(=O)N[C@@H](CO)C(=O)N[C@@H](C)C(=O)N1CCC[C@H]1C(=O)N1CCC[C@H]1C(=O)N[C@@H](Cc1c[nH]cn1)C(=O)N[C@@H](CCCNC(=N)N)C(=O)N[C@@H](Cc1c[nH]c2ccccc12)C(=O)O`, the figures for the IC50 at HLA-B*4001 and against HLA-B*4501 were 943 nM and 359 nM, respectively. For the compound `CC(C)[C@H](NC(=O)[C@H](CCCNC(=N)N)NC(=O)[C@H](Cc1ccccc1)NC(=O)[C@H](CCC(N)=O)NC(=O)CNC(=O)[C@@H](NC(=O)[C@H](C)NC(=O)[C@H](CCC(=O)O)NC(=O)[C@H](CCC(=O)O)NC(=O)[C@@H](N)CC(N)=O)[C@@H](C)O)C(=O)N[C@@H](Cc1ccc(O)cc1)C(=O)O`, the IC50 on HLA-B*4001 was 3250 nM; at HLA-B*4501, 3990 nM. On to `CSCC[C@H](NC(=O)[C@H](CC(=O)O)NC(=O)[C@H](CC(C)C)NC(=O)[C@H](Cc1c[nH]cn1)NC(=O)[C@@H](NC(=O)[C@H](CCC(=O)O)NC(=O)[C@@H]1CCCN1)[C@@H](C)O)C(=O)N[C@@H](CC(C)C)C(=O)O`, for which the IC50 against HLA-B*1801 was found to be 1950 nM; against HLA-B*4001, 8390 nM; at HLA-B*4002, 6120 nM. Regarding `CC(C)[C@H](NC(=O)[C@H](CC(=O)O)NC(=O)[C@@H]1CCCN1C(=O)[C@H](CCC(N)=O)NC(=O)[C@H](CC(N)=O)NC(=O)[C@@H](NC(=O)[C@H](Cc1ccc(O)cc1)NC(=O)[C@H](CCC(=O)O)NC(=O)[C@@H]1CCCN1)C(C)C)C(=O)O`, the figures for the IC50 against HLA-B*1801, against HLA-B*4001 and against HLA-B*4002 were 831 nM, 3440 nM and 1580 nM, respectively. For the compound `CC[C@H](C)[C@H](NC(=O)[C@H](CC(N)=O)NC(=O)[C@@H]1CCCN1C(=O)[C@@H](NC(=O)[C@H](Cc1ccccc1)NC(=O)[C@H](CC(C)C)NC(=O)[C@H](CCC(=O)O)NC(=O)[C@@H](N)CCC(N)=O)[C@@H](C)CC)C(=O)O`, the IC50 at HLA-B*4001 was 5820 nM; against HLA-B*4501, 1320 nM. As to `CC(C)C[C@H](NC(=O)[C@H](CCC(=O)O)NC(=O)[C@@H](NC(=O)[C@H](CCC(=O)O)NC(=O)[C@@H](N)CCC(N)=O)[C@@H](C)O)C(=O)N[C@H](C(=O)N[C@@H](CCC(=O)O)C(=O)N1CCC[C@H]1C(=O)N[C@@H](CC(C)C)C(=O)N[C@H](C(=O)O)[C@@H](C)O)C(C)C`, the figures for the IC50 on HLA-B*4001 and against HLA-B*4002 were 293 nM and 338 nM, respectively. For the compound `CC[C@H](C)[C@H](NC(=O)[C@H](CC(C)C)NC(=O)[C@@H](NC(=O)CNC(=O)CNC(=O)[C@H](CCCCN)NC(=O)[C@H](CC(C)C)NC(=O)[C@@H](NC(=O)[C@H](CCC(=O)O)NC(=O)[C@@H](N)[C@@H](C)O)[C@@H](C)CC)C(C)C)C(=O)O`, the figures for the IC50 against HLA-B*1801, against HLA-B*4001 and against HLA-B*4002 were 1020 nM, 241 nM and 294 nM, respectively. At HLA-B*4001, `CC(C)C[C@H](NC(=O)[C@@H](NC(=O)[C@@H](NC(=O)[C@H](CCC(=O)O)NC(=O)[C@@H](N)C(C)C)C(C)C)[C@@H](C)O)C(=O)NCC(=O)N[C@@H](CCC(=O)O)C(=O)N[C@H](C(=O)N1CCC[C@H]1C(=O)N[C@@H](C)C(=O)O)C(C)C` had an IC50 of 371 nM. This lies in the sub-micromolar range. Consider `CC[C@H](C)[C@H](NC(=O)[C@@H]1CCCN1C(=O)[C@@H](NC(=O)[C@@H](NC(=O)[C@H](CCC(=O)O)NC(=O)[C@@H](N)C(C)C)C(C)C)C(C)C)C(=O)N[C@@H](CO)C(=O)N[C@@H](Cc1c[nH]cn1)C(=O)N[C@@H](CC(C)C)C(=O)N[C@@H](Cc1ccc(O)cc1)C(=O)O`, for which the results for the IC50 at HLA-B*4001 and on HLA-B*4002 were 11500 nM and 4390 nM, respectively.

For the compound `CC(C)C[C@H](NC(=O)[C@H](C)NC(=O)[C@H](CCC(=O)O)NC(=O)CNC(=O)[C@H](CCCNC(=N)N)NC(=O)[C@H](C)NC(=O)[C@H](CCC(=O)O)NC(=O)[C@@H](N)CC(C)C)C(=O)O` [LEARGEAL], the IC50 was 163 nM on HLA-B*1801 and 99 nM against HLA-B*4001. The corresponding values for `CC(C)[C@H](NC(=O)[C@H](C)NC(=O)[C@H](CCCNC(=N)N)NC(=O)[C@@H](NC(=O)[C@H](CCC(=O)O)NC(=O)[C@@H](N)CCCNC(=N)N)C(C)C)C(=O)N[C@H](C(=O)O)[C@@H](C)O` [REVRAVT] are 8560 nM and 3140 nM.

As to `CC(C)C[C@H](NC(=O)[C@H](Cc1ccc(O)cc1)NC(=O)[C@H](CCC(=O)O)NC(=O)[C@@H](N)CO)C(=O)N[C@@H](CCC(N)=O)C(=O)N[C@@H](CC(C)C)C(=O)N[C@H](C(=O)O)C(C)C` [SEYLQLV], at HLA-B*4001, the IC50 came out at 7780 nM.

With `CSCC[C@H](NC(=O)[C@H](CO)NC(=O)[C@H](CC(C)C)NC(=O)[C@H](CCC(=O)O)NC(=O)[C@H](CCC(=O)O)NC(=O)[C@@H](N)Cc1c[nH]c2ccccc12)C(=O)N[C@@H](CC(C)C)C(=O)O` [WEELSML], the results for the IC50 on HLA-B*4001 and against HLA-B*4002 were 781 nM and 740 nM, respectively.
